Measured values taken from patent US20060040911A1, “Method for preventing and/or treating the cardiovascular and hepatic diseases induced by hyperlipidemia which comprises administered an effective amount of bioflavonoids extract derived from fructus crataegus (lipid metabolism and fructus crataegus)” (priority 2003, published 2006).

Molecular target: T1, 3-HMG-CoA reductase (Oryctolagus cuniculus, UniProt Q29512)
T1 construct: ultracentrifuged at 100,000 times gram for 60 minutes and again for another 60 minutes to obtain microsomal precipitates; from tissue; host or cells: rabbit liver microsomes
T1 sequence (Q29512 1-888): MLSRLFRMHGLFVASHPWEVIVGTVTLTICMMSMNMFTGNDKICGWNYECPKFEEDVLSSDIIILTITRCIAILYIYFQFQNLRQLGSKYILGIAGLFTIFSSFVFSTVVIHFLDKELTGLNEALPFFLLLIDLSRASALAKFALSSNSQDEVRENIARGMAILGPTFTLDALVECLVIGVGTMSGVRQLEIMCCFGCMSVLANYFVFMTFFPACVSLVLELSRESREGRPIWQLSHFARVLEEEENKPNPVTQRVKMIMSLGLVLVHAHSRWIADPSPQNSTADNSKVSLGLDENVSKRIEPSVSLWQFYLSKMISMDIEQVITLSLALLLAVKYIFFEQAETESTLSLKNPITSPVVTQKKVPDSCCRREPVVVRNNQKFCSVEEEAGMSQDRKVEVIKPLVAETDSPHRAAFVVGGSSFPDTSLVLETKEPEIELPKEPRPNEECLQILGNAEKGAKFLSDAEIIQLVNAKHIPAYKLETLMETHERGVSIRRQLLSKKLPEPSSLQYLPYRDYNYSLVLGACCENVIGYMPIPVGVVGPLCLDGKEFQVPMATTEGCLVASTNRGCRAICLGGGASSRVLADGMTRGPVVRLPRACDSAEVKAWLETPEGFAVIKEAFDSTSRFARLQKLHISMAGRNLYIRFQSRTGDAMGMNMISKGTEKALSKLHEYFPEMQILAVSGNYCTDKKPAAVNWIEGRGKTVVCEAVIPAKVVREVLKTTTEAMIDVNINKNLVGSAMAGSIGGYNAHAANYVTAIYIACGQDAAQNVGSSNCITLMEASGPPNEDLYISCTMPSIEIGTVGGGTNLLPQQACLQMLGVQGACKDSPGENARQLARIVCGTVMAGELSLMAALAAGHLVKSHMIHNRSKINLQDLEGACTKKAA
Assay: Activity of 3-HMG-CoA reductase in liver microsomes (modified Hulcher's method)
Type: biochemical, rabbit
Settings: liver microsomes of rabbits fed 8 weeks 1% cholesterol plus 0.15% bioflavonoid; control group 0%
Method: The activity of 3-HMG-CoA reductase was determined by modified Hulcher's method (Journal of lipid research; 14, 625-641, 1973), in which the concentration of Co-A will be produced when 3-HMG-CoA is reduced to mevalonate salt by the action of the 3-HMG-CoA reductase; then the reductase was determined by spectroscopy and the activity of the 3-HMG-CoA reductase was calculated.
Liver tissues from each group of rabbits from Example 4 Step B were obtained, 3 gram of tissue was washed with 100 ml of cold normal saline (1 N NaCl) and 100 ml of cold buffer solution-A (0.1M triethanolamine HCl/10 mM EDTA/10 mM dithiothreitol (DTT)). A cold buffered solution-A and liver tissue ratio was 2 ml per each gram. […] The precipitates were washed with cold buffer solution-A and kept at minus 70 degree C. till ready for analysis. […]
The mixture was then added with 20 µl of DTNB buffer solution (3 mM DTNB/0.1M triethanolamine/10 mM EDTA with PH of 7.4). The absorbance of this mixture was determined at wave length of 412 nm to calculate the amount of CoA that is the activity of 3-HMG-CoA reductase. The amount of inhibition on the activity of the 3-HMG-CoA reductase by rutin, quercetin, kaempherol and vitexin were calculated base on the above method.

Compound: O=c1c(O)c(-c2ccc(O)cc2)oc2cc(O)cc(O)c12 [Kaempherol, 3,5,7,4′ tetra-hydroxy-flavone]
- Inhibition on the activity of 3-HMG-CoA reductase in percentage (%): 30%
